Apparent affinities of Ab-14 variants for a coronavirus HR2 peptide

Data: MIT Lincoln Laboratory AlphaSeq set, Li et al. 2023, doi:10.1038/s41467-023-39022-2, as distributed in FLAb.

Target peptide (SARS-CoV-2 spike, HR2 region): PDVDLGDISGINAS

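The starting antibody came from a phage panning campaign against this peptide. These sequences belong to a second round, designed from the earlier measurements on random variants of the parent. Group labels follow the data file (Rand: our label for a block that the file lists under HC and that is probably the random mutants of the ten best first-round binders; En: ensemble of fine-tuned language models; HC: hill climbing; Gen: genetic algorithm; Gibbs: Gibbs sampling; a sequence that several methods proposed may carry one label only). In AlphaSeq, yeast of one mating type display the scFv and yeast of the other type display the target. The frequency of each diploid, read from paired DNA barcodes, reflects how well the two displayed proteins bind. Read counts were normalised to the haploid input and turned into Kd by a linear fit to BCL2-family pairs of known affinity, for each replicate. There are six technical replicates.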

Each scFv is VH, the linker GGGGSGGGGSGGGGS, VL, as in the parent Ab-14, and differs from it in the CDRs of the heavy chain only.
VH: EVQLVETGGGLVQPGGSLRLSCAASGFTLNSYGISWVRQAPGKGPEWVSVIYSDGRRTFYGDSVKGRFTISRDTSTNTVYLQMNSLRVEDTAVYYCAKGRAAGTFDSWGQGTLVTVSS
VL: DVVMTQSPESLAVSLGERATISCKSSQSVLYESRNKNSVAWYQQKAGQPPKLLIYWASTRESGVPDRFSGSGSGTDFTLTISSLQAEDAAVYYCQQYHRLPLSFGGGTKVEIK

Each variant is given by its three heavy chain CDRs, as the data file delimits them; those of the parent are GFTLNSYGIS, VIYSDGRRTFYGDSVK, GRAAGTFDS. This list holds designs with more than six substitutions. Kd is apparent (estimated from mating counts) and averaged on the log scale over replicates with a signal. Smaller is tighter. "nd" marks a missing value. The strain was present, yet no cells mated with the target were sequenced in any replicate, which points to weak or no binding. Three control strains display no target. For all heavy chain designs, 1% of the pairings with them gave a signal, with a median of 120 nM and one signal in twenty below 7.0 nM, so weak values seen in few replicates may be background. Also given: how often the same scFv was detected with the empty control strains.

Variant GFDLDEYGIS / VIYADGMRTAYADTVK / GNVAGTFDL [En_Gen] gave 110 pM (6 of 6 replicates; controls 0 of 18). Variant GFDLDEYGIS / VIYADGRRTFYADSVK / GEAAGTFDT [En_HC] showed 580 pM (6 of 6 replicates; controls 0 of 18). With GFNLNEYGIS / VIYADGRRSFYSDSVK / GENAGTFDV [En_HC] the result was 670 pM (6 of 6 replicates; controls 1 of 18). Variant GFDLDEYGIS / VIYADGMRTFYADSVK / GNIAGTFDM [En_HC] gave 440 pM (6 of 6 replicates; controls 0 of 18). Variant GFDLNEYGIS / VIYADGQRTAYADSVK / GETAGTFDQ [En_Gen] showed 260 pM (6 of 6 replicates; controls 0 of 18).

With GFDLNEYGIS / VIYADGRRTAYVDSVK / GVNAGTFDS [En_HC] the result was 230 pM (6 of 6 replicates; controls 0 of 18). With GFDLDEYGIS / VIYADGMRTAYADDVK / GQNAGTFDV [En_Gen] the result was 530 pM (6 of 6 replicates; controls 0 of 18). Variant GFDLNEYGIS / VIYADGQRTQYASSFK / GDLAGYFES [En_Gibbs] showed nd (0 of 6 replicates; controls 0 of 18). For GFDINEYGIS / VIYADGMRTAYADSVK / GENAGTFDV [En_Gen], the assay gave nd (0 of 6 replicates; controls 0 of 18). For GFDIEEYGIS / VIYADGLRQAYKDNFK / GWNDGTFDV [En_Gibbs], the assay gave nd (0 of 6 replicates; controls 0 of 18).

For GFQLEEMGIS / VIYADGVRTAYSSKVK / GINGDFFDV [En_Gibbs], the assay gave nd (0 of 6 replicates; controls 1 of 18). With GFDLNEYGIS / VIYADGRRTFYADSVK / GEEAGTFLV [En_HC] the result was 2.7 nM (6 of 6 replicates; controls 0 of 18). Variant GFDLEDYGIS / VIYADGRRTAYADSVK / GNVAGTFDT [En_Gen] showed 970 pM (6 of 6 replicates; controls 0 of 18). Variant GFDLNEYGIS / VIYADGMRTYYADSVK / GNNAGTFDT [En_Gen] gave 1.1 nM (4 of 6 replicates; controls 0 of 18). For GFDLNEYGIS / VIYADGRRTYYADSVK / GNVAGTFDI [En_Gen], the assay gave 380 pM (6 of 6 replicates; controls 1 of 18).

Variant GFDLNSYGIS / VIYIDGRATFQGISVK / GRAAGWFNS [Rand] gave nd (0 of 6 replicates; controls 1 of 18). For GFDLNEYGIS / VIYADGMRTAYSDSVK / GNQAGTFDL [En_Gen], the assay gave 660 pM (6 of 6 replicates; controls 1 of 18). With GFNLNEYGIS / VIYADGRRTFYADSVK / GEIAGTFDL [En_HC] the result was 220 pM (6 of 6 replicates; controls 0 of 18). With GFDLNEYGIS / VIYADGRRTAYADSVK / GNVAGTFDM [En_Gen] the result was 510 pM (6 of 6 replicates; controls 0 of 18). For GFDLDEYGIS / VIYADGMRTFYADSVK / GNTAGTFIS [En_HC], the assay gave 31 nM (6 of 6 replicates; controls 0 of 18).

Variant GFSLEEYGIS / VIYADGMRTFYTDKVK / GNLDAQEGY [En_Gibbs] gave 620 nM (1 of 6 replicates; controls 1 of 18). For GFALDEYGIS / VIYADGSRSAYTSSVK / GVHNGDIMI [En_Gibbs], the assay gave nd (0 of 6 replicates; controls 0 of 18). Variant GFDLDEYGIS / VIYADGMRTAYQDSVK / GNNAGTFDV [En_Gen] showed 200 pM (5 of 6 replicates; controls 0 of 18). With GFDLNEYGIS / VIYADGMRTFYADDVK / GNVAGTFDT [En_Gen] the result was 910 pM (6 of 6 replicates; controls 1 of 18). With GFNLDEYGIS / VIYADGKRTAYSDSVK / GNVAGTFDV [En_Gen] the result was 710 pM (6 of 6 replicates; controls 0 of 18).

With GFDLDEYGIS / VIYADGMRTAYADNVK / GNEAGTFDV [En_Gen] the result was 1.4 nM (6 of 6 replicates; controls 0 of 18). Variant GFDLNEYGIS / VIYADGSRTAYADKVK / GENAGTFDV [En_Gen] showed 740 pM (6 of 6 replicates; controls 1 of 18). For GFDLNEYGIS / VIYADGMRTAYADNVK / GEVAGTFDQ [En_Gen], the assay gave 700 pM (6 of 6 replicates; controls 0 of 18). For GFDLNEYGIS / VIYADGMRTFYADDVK / GNVAGTFDM [En_Gen], the assay gave 280 pM (6 of 6 replicates; controls 0 of 18). Variant GFDLNEYGIS / VIYADGRRTAYADSVK / GQVAGTFNM [En_HC] gave 270 pM (6 of 6 replicates; controls 1 of 18).

For GFDLNEYGIS / VIYADGMRSAYADSVK / GTNAGTFDV [En_Gen], the assay gave 140 pM (6 of 6 replicates; controls 0 of 18). Variant GFDLNEYGIS / VIYADGRRTFYSDSVK / GTVAGFFDQ [En_HC] showed 2.9 nM (5 of 6 replicates; controls 0 of 18). Variant GQDINEYGIS / VIYADGLRKAYSQQVK / GQNLGDVKD [En_Gibbs] showed nd (0 of 6 replicates; controls 0 of 18). Variant GEDLQEYGIS / VIYADGLRTAYSDNFK / GHLGGQFDM [En_Gibbs] gave 38 nM (1 of 6 replicates; controls 0 of 18). With GFDLNEYGIS / VIYADGKRTFYADSVK / GQVAGTFDT [En_HC] the result was 290 pM (6 of 6 replicates; controls 0 of 18).

The closing 4 entries, repeated:

Variant GFDLNEYGIS / VIYADGRRTFYSDSVK / GTVAGFFDQ [En_HC] gave 2.9 nM (5 of 6 replicates; controls 0 of 18).
Variant GQDINEYGIS / VIYADGLRKAYSQQVK / GQNLGDVKD [En_Gibbs] gave nd (0 of 6 replicates; controls 0 of 18).
Variant GEDLQEYGIS / VIYADGLRTAYSDNFK / GHLGGQFDM [En_Gibbs] gave 38 nM (1 of 6 replicates; controls 0 of 18).
Variant GFDLNEYGIS / VIYADGKRTFYADSVK / GQVAGTFDT [En_HC] gave 290 pM (6 of 6 replicates; controls 0 of 18).

The parent sequence was in this pool as ten entries: three were never detected, three once, and four in most replicates, with averages from 2.2 nM to 240 nM. A sequence measured in both rounds can read differently, since the two assays cover different ranges. The authors' rule: three or more of the six replicates give a measured affinity, fewer mean a poor binder.